Earlier results, collected in publication PMC5515969, “Effects of 31 FDA approved small-molecule kinase inhibitors on isolated rat liver mitochondria” (Archives of Toxicology, 2016).

Details: human therapeutic Cmax at FDA recommended dosages; ref product labeling and drug approval packages at the official FDA website; cited from earlier work

In the case of `CS(=O)(=O)CCNCc1ccc(-c2ccc3ncnc(Nc4ccc(OCc5cccc(F)c5)c(Cl)c4)c3c2)o1` [Lapatinib], the Cmax is given as 4.18 µM.
